Measurements taken from ChEMBL document CHEMBL3286257, “Development of second generation EP2 antagonists with high selectivity” (Eur J Med Chem, 2014).

By UniProt entry, the sequences of proteins in these tests, tags left out. Where a name states a change or a piece, a line headed by the entry shows the natural chain unless it says otherwise.
UniProt P43116: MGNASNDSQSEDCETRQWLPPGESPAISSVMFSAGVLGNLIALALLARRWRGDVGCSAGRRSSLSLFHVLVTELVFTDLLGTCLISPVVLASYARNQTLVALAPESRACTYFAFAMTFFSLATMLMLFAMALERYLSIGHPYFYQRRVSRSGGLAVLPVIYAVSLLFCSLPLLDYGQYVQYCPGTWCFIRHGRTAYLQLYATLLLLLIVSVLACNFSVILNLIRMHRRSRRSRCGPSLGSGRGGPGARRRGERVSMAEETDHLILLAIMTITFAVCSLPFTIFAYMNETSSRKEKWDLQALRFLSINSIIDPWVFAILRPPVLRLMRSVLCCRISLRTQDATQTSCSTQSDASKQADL

Experiments:
EP2 receptor = experiment: Therapeutic index, ratio of CC50 for rat C6 cells to KB for EP2 receptor (unknown origin); type: cell-based; details: read-out: TI
[1] = target: Prostaglandin E2 receptor EP2 subtype (Homo sapiens) (UniProt P43116); experiment: Competitive antagonist activity at human EP2 receptor assessed as inhibition of PGE2-induced response
[2] = target: Prostaglandin E2 receptor EP2 subtype (Homo sapiens) (UniProt P43116); experiment: Antagonist activity at EP2 receptor (unknown origin) expressed in rat C6 cells assessed as inhibition of PGE2-induced response; type: cell-based

Kb [2]	SMILES	other results
28.6 nM	Cc1[nH]c2ccccc2c1CCNC(=O)c1ccc(N2CCOCC2)cc1	
62.9 nM	CCN(CC)c1ccc(C(=O)NCCn2ccc3ccccc32)cc1	

The remaining lines, values behind:

SMILES	Kb [2]	other results
Cc1cc2ccccc2n1CCNC(=O)c1ccc(-c2nnn[nH]2)cc1		selectivity ratio (EP2 receptor): > 13400
COc1cc(/C=C/C(=O)NCCn2c(C)cc3ccccc32)cc(OC)c1OC		Kb [1]: 2.2 nM
Cc1cc2ccccc2n1CCNC(=O)c1ccc(C(=O)O)cc1	245 nM	
